{"source": "paper PMC10813319", "about": "(Biomedicines, 2024)", "test_system": "developing synapses (PSD95/VGLUT1 contacts) in Day 55 human neurons", "data": [{"compound": "C[C@H](O)[C@@H](N)C(=O)N[C@@H](C(=O)N[C@H](CC(N)=O)C(=O)N[C@H](Cc1ccc(O)cc1)C(=O)N[C@@H](C(=O)O)[C@H](C)O)[C@H](C)O", "note": "[RAP-103]", "values": [{"measurement": "Aβd/t-induced decline in developing synapses, human neurons", "setting": "Aβd/t ± RAP-103 0.1 nM for 4–5 days, PSD95/VGLUT1 contacts normalized to MAP2 area", "result": "completely prevented"}, {"measurement": "Effect of RAP-103 alone on developing synapses, human neurons", "setting": "RAP-103 0.1 nM alone for 4–5 days", "result": "no alteration in developing synapses"}]}]}
